Measurements published in PMC8657792, “Interaction Profiles of Central Nervous System Active Drugs at Human Organic Cation Transporters 1–3 and Human Plasma Membrane Monoamine Transporter” (International Journal of Molecular Sciences, 2021).

Experiments:
[1] = biological target: T1, hOCT3 (Homo sapiens, UniProt O75751); conditions: Table S1; supplementary reference list; read-out: IC50 literature hOCT3; cited from earlier work
T1 construct: expressed in transfected cells
T1 sequence (O75751 1-556): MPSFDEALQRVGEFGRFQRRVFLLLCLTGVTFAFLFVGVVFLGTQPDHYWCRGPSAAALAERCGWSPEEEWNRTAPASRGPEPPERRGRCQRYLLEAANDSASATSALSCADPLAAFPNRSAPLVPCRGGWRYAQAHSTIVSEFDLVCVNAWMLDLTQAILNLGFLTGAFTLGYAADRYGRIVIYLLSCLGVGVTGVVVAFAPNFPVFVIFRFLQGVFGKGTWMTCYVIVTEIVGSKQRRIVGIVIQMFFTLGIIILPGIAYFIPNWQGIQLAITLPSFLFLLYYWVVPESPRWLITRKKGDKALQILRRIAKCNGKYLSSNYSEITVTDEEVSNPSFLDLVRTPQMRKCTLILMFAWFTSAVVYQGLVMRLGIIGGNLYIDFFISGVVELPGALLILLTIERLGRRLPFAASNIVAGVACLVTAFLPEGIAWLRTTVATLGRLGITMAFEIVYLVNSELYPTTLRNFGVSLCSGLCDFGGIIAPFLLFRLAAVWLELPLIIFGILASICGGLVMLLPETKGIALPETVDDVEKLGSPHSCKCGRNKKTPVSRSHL

[2] = biological target: T1, hOCT3; test: [3H]MPP+ uptake inhibition assay, HEK293 cells stably expressing hOCT3; assay type: cell-based; conditions: 0.05 μM [3H]MPP+, 10 min pre-incubation, 10 min uptake, brackets in Table S1 = 95%-CI, n.s. = non-significant

Structure (SMILES) | IC50 [1] [µM] | IC50 hOCT3 (inhibitory potency, [3H]MPP+ uptake) [2]
CN(C)CCCC1(c2ccc(F)cc2)OCc2cc(C#N)ccc21 (stereo not drawn) [Citalopram] | 188 | –
CN(C)CCC[C@]1(c2ccc(F)cc2)OCc2cc(C#N)ccc21 [R-Citalopram, R-citalopram] | – | n.s.
CN(C)CCC[C@@]1(c2ccc(F)cc2)OCc2cc(C#N)ccc21 [S-Citalopram, S-citalopram] | – | n.s.
